In PubChem BioAssay AID720708 (National Center for Advancing Translational Sciences (NCATS), 2013) one finds activity, negative = inhibition data, which are given here for 50 compounds.

Amino acid sequences for entries named in this document (tags omitted). A change or cut given only in a name is not applied to a line headed by its entry.
UniProt Q8WZA2: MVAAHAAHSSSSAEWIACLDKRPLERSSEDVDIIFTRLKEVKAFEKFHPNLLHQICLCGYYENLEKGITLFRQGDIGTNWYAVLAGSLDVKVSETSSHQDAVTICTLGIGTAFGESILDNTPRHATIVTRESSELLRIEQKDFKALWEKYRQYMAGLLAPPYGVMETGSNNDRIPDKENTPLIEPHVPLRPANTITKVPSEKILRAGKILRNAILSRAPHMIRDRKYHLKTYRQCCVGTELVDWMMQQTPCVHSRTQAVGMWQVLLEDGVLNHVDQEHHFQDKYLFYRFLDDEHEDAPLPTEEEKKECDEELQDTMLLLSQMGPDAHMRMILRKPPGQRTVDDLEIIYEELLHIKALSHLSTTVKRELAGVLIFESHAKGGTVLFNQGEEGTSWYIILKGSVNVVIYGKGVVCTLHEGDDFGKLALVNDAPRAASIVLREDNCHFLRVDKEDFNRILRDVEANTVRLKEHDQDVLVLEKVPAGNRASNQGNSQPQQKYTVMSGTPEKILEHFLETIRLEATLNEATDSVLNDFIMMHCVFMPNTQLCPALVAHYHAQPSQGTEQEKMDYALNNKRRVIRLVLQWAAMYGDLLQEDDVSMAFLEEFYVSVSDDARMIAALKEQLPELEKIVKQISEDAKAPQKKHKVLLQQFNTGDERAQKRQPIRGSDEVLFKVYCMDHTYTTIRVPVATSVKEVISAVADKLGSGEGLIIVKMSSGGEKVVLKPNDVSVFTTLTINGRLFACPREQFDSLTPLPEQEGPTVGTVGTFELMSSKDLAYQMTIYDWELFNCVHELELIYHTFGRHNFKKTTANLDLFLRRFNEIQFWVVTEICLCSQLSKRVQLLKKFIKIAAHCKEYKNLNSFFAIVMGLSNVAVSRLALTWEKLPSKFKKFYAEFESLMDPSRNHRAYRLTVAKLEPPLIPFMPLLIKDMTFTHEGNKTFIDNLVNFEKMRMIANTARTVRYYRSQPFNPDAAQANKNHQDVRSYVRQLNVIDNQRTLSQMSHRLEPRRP

Only a part is listed here, and it is no random draw. Active and inactive are the calls of the source. The call rests on the fitted dose curve; in most records, active means well fitted inhibition curve with a large enough effect; inconclusive means small, poorly fitted or top-dose-only effect; inactive means no such curve, though single readings can be large or run the other way.
On the % scale 0 is the no-effect control and ±100 the full control effect.

The target in this test is Rap guanine nucleotide exchange factor 4 (Homo sapiens) (UniProt Q8WZA2). In words: qHTS for Antagonist of cAMP-regulated guanine nucleotide exchange factor 2 (EPAC2): primary screen. Further: nearly all actives have a fitted effect of over 45% in size. To be noted: EPAC2 GEF exchange of Rap1B-BODIPY-GDP, fluorescence; at 114 µM (top of the series) unless noted. The text has this: In multi-cellular eukaryotic organisms, the effects of cAMP are transduced by two ubiquitously-expressed intracellular cAMP receptors, the classic protein kinase A/cAMP-dependent protein kinase (PKA/cAPK) and the more recently discovered exchange protein directly activated by cAMP/cAMP-regulated guanine nucleotide exchange factor (EPAC/cAMP-GEF). Both PKA and EPAC are ubiquitously expressed in all tissues, and an increase in intracellular cAMP levels will lead to the activation of both PKA and EPAC. Therefore, careful dissections of the individual role and relative contribution of EPAC and PKA within the overall cAMP signaling in various model systems are critical for further elucidating the mechanism of cAMP signaling. To date no EPAC-specific antagonists and agonist, as well as isoform-specific agonists have been reported, and developing EPAC-specific pharmacological probes to determine the physiological functions that EPAC play in the overall cAMP-mediated signaling remains a major challenge within the research field. Furthermore, identified regulators of EPAC may lead to new mechanism-based therapeutic strategies specifically targeting the EPAC / cAMP-signaling components as EPAC has been implicated to play important roles in major human pathological conditions such as diabetes, heart disease, and cancer.
This qHTS will be used to screen the Molecular Libraries Small Molecule Repository (MLSMR) as a concentration-titration series using the NCGC unique quantitative screening (qHTS) platform to find inhibitors for EPAC2. In addition, this assay will also be used as a counterscreen for the EPAC1 qHTS. This fluorescent based assay is developed and validated for EPAC2 that measures exchange using EPAC effector Rap1 complex with BODIPY-GDP, a GDP analog with a tethered fluorophores. Inhibitors are identified by monitoring the change in fluorescence signal as the exchanged free BODIPY-GDP has a reduced fluorescence compared to Rap1-bound BODIPY-GDP. Decrease in signal (inhibition) is the desired outcome for the EPAC2 antagonist while no activity in this assay is desired for the EPAC1 antagonist counterscreen.
NIH Chemical Genomics Center [NCGC]
NIH Molecular Libraries Probe Centers Network [MLPCN]
Assay Submitter (PI): Xiaodong Cheng, The University of Texas, Medical Branch
Briefly, three uL of reagents (100 nM EPAC2, 250 nM RAP1B-BODIPY-GDP, 50 uM GDP) were dispensed into a 1536-well Greiner black solid-bottom medium binding assay plate. Controls and test compounds (23 nL) were transferred to the plate via a Kalypsys pin tool equipped with a 1536-pin array. The plates were centrifuged at 1,000 rpm for 15 seconds followed by 5 minute incubation at room temperature. The assay plates were read at 5 minute intervals for 30 minutes in the ViewLux plate reader using 480nm excitation and 540nm emission filters. The results were normalized to the agonist positive control ATA and DMSO.
In general terms: Quantitative high-throughput screening tests each substance at several concentrations.
For the compound `O=C(OC1CN2CCC1CC2)c1cccc(Cl)c1` (stereo not given), the activity, negative = inhibition was inactive: 7.3%. As for `COc1ccc(N)c([N+](=O)[O-])c1[N+](=O)[O-]`, the activity, negative = inhibition was inactive: -12.8%. The result for `CN(C)C1(CNC(=O)c2ccc(Cl)c(S(N)(=O)=O)c2)CCCCC1` reads inactive: 2.17%. With `C[C@H]1OP(=O)(Oc2ccccc2)[C@H](O)[C@H](O)[C@H]1N=[N+]=[N-]` (stereo not given in full), the activity, negative = inhibition is inactive: -8.57%. The result for `O=P(Nc1nc2ccccc2s1)(c1ccccc1)c1ccccc1` reads inactive: -18%; that for `O=P(Nc1nccs1)(c1ccccc1)c1ccccc1`, inactive: -6.64%.

On to `CC(C)C(=O)NC(Sc1ccccc1)C(Cl)(Cl)Cl` (stereo not given), for which the activity, negative = inhibition is inactive: 0.27%.

Consider `c1nnnn1CCn1cnnn1`, for which the activity, negative = inhibition was inactive: -2.6%. Consider `COC(=O)C1(C)COP(=O)(NCc2ccccc2)OC1` (stereo not given), for which the activity, negative = inhibition is inactive: 7.39%. `N#C/C(=C\c1ccc(N(CCBr)CCBr)cc1)C(N)=O`: the activity, negative = inhibition is inactive: -1.63%.

Take `CC(=O)c1ccc(N2CC2c2ccncc2)cc1` (stereo not given): the activity, negative = inhibition is inactive: 5.27%. The result for `C[C@@H]1C=CCP(=O)(Oc2ccccc2)O1` (stereo not given in full) reads inactive: 3.16%; that for `C[C@H]1OP(=O)(Oc2ccccc2)C[C@@H]2O[C@@H]21` (stereo not given in full), inactive: -6.75%. The result for `Cc1ccccc1CN(C)C(=O)COC(=O)C(O)(c1ccccc1)c1ccccc1` reads inactive: -18.6%; that for `CC(=O)Nc1ccc(Oc2c([N+](=O)[O-])cc([N+](=O)[O-])cc2[N+](=O)[O-])cc1`, inactive: -18%. The result for `CC(=O)Nc1ccc([As](=O)(O)O)c(O)c1` reads inactive: 2.58%; that for `CCOc1ccc(C2=NCC(CBr)S2)cc1` (stereo not given), inactive: 19.4%. As for `O=P1(Nc2nc3ccc(Cl)cc3s2)COc2ccccc2O1` (stereo not given), the activity, negative = inhibition is inactive: 9.33%.

Take `CCc1cc(O)c([N+](=O)[O-])c(C)c1[N+](=O)[O-]`: the activity, negative = inhibition is inactive: -4.77%.

Take `CC(C)(C)C(=O)NC(Sc1ccccc1)C(Cl)(Cl)Cl` (stereo not given): the activity, negative = inhibition is inactive: -11.9%. Regarding `CC(=O)NC(SC(=S)N(CC(C)C)CC(C)C)C(Cl)(Cl)Cl` (stereo not given), the activity, negative = inhibition is inactive: -2.5%. The result for `COC(=O)c1cc2c(s1)N=C(c1ccccc1)N(C)P2(=O)N1CCOCC1` (stereo not given) reads inactive: 7.17%; that for `CCC(=O)N1C2C3N(C(=O)CC)C1C1N(C(=O)CC)C(C(N1C(=O)CC)N3C(=O)CC)N2C(=O)CC`, inactive: 1.84%. As to `O=C(OC1CN2CCC1CC2)c1ccccc1` (stereo not given), the activity, negative = inhibition was inactive: 10.3%. The result for `CN(C)C(=O)Oc1noc2ccccc12` reads inactive: -0.956%.

Regarding `CC(NC(=O)COC(=O)C(O)(c1ccccc1)c1ccccc1)c1ccccc1` (stereo not given), the activity, negative = inhibition is inactive: -20.9%.

On to `O=C(NC1CCS(=O)(=O)C1)NP(=S)(Oc1ccccc1)Oc1ccccc1` (stereo not given), for which the activity, negative = inhibition was inactive: -19.4%.

With `CCNC(=S)/N=C(\N)N[N+](=O)[O-]`, the activity, negative = inhibition was inactive: 4.64%. The result for `c1ccc(-c2nn[nH]n2)c(-c2nn[nH]n2)c1` reads inactive: 6.87%. The result for `O=P1(N(CCCl)CCCl)OCCC2CCCCN21` (stereo not given) reads inactive: 17.4%; that for `NC(=O)Nc1ccc([As](=O)(O)O)cc1`, inactive: -2.63%. With `CN(C(=O)Cc1ccc(Cl)c(Cl)c1)[C@H]1CC[C@@]2(CCCO2)C[C@@H]1N1CCCC1`, the activity, negative = inhibition is inactive: 0.557%. The result for `CN(C)C(=O)c1cc([N+](=O)[O-])cc2c1-c1c(cc([N+](=O)[O-])cc1[N+](=O)[O-])C2=O` reads inactive: -22.2%; that for `O=[N+]([O-])c1ccc2c(c1)nnn2O`, inactive: -3.27%. The result for `CN(C(=O)Cc1ccccc1)[C@@H]1CC[C@]2(CCCO2)C[C@H]1N1CCCC1` reads inactive: -8.4%. The result for `CCOP1(=S)c2c(C)nn(CCC#N)c2N=C(c2ccc(F)cc2)N1C` (stereo not given) reads inactive: -7.69%; that for `N#CCCN(C(=O)COC(=O)C(O)(c1ccccc1)c1ccccc1)c1ccc(F)cc1`, inactive: -5.38%.

For the compound `CS(=O)(=O)c1cc([N+](=O)[O-])c2no[n+]([O-])c2c1`, the activity, negative = inhibition is inactive: -10.5%. As to `O=P(Nc1nccs1)(c1ccccc1)c1nc2ccccc2s1` (stereo not given), the activity, negative = inhibition is inactive: 1.16%. For `O=P(Nc1nccs1)(Oc1ccccc1)Oc1ccccc1`, the activity, negative = inhibition is inactive: -10.2% [at 57.1 µM].

Take `CCOP1(=S)c2c(C)nn(CCC#N)c2N=C(c2ccccc2F)N1C` (stereo not given): the activity, negative = inhibition was inactive: -1.52%.

For `O=C(O)COc1ccc([As](=O)(O)O)cc1[N+](=O)[O-]`, the activity, negative = inhibition is inactive: 2.79%. Consider `Nc1ccccc1[As](=O)(O)c1ccccc1`, for which the activity, negative = inhibition is inactive: 4.04%. The result for `CCCOP(=S)(Nc1nc(N)cc(=O)[nH]1)OCCC` reads inactive: -7.49%. The result for `Cc1ccc(NCCc2c([N+](=O)[O-])cc([N+](=O)[O-])cc2[N+](=O)[O-])cc1` reads inactive: 1.36%; that for `Nc1cccc2c([As](=O)(O)O)cccc12`, inactive: 5.01%. Consider `COc1cc(C2NCCC3(OCCO3)C2(C)C)cc(OC)c1OC` (stereo not given), for which the activity, negative = inhibition was inactive: 13.4%. On to `CS(=O)(=O)c1ccc(Cl)c(NC(=O)COC(=O)C(O)(c2ccccc2)c2ccccc2)c1`, for which the activity, negative = inhibition was inactive: -3.44%. Regarding `COc1cc(C(=O)NCC2(N3CCOCC3)CCCCC2)cc(Cl)c1OC(C)C`, the activity, negative = inhibition was inactive: -16.9%. Regarding `O=[As](O)(O)c1cccnc1`, the activity, negative = inhibition was inactive: -9.23%.
